According to patent publication US7070796B1 (Debiopharm S.A., priority 1999, dated 2006):

Text: Some of these tests will appear in the examples as comparatives.

**Q.** Which “effect of the substance, mixed with or solubilised in water, on oxaliplatinum solubility” value does the source give for gentiobiose here?
**A.** allow to dissolve, at least a part of the oxaliplatinum
